Results: ChEMBL document CHEMBL5696442, “Discovery of type II inhibitors of TGFβ-activated kinase 1 (TAK1) and mitogen-activated protein kinase kinase kinase kinase 2 (MAP4K2)” (J Med Chem, 2015)

Experiments:
[1] = biological target: T1, Mitogen-activated protein kinase kinase kinase 7 (Homo sapiens) (UniProt O43318); assay: Inhibition of TAK1 (unknown origin) at 10 uM by Ambit Kinomescan binding assay relative to control
T1 sequence (whole entry): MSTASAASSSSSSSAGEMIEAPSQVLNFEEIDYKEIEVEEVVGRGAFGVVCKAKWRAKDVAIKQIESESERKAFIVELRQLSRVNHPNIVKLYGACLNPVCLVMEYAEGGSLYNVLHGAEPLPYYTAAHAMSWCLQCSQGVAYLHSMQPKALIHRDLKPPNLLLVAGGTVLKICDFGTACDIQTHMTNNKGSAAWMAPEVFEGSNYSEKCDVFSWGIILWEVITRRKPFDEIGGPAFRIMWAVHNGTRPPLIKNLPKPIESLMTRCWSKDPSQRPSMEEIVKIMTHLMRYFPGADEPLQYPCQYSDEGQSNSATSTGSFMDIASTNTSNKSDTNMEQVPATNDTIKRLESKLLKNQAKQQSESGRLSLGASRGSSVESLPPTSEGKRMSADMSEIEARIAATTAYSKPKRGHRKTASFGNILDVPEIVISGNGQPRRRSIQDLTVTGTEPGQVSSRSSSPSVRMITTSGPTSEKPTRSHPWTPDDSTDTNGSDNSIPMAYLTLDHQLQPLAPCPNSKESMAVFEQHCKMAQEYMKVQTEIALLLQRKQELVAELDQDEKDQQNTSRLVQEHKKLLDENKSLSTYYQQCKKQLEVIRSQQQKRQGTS

[2] = biological target: T2, Serine/threonine-protein kinase TAO3 (Homo sapiens) (UniProt Q9H2K8); assay: Inhibition of TAOK3 (unknown origin) at 10 uM by Ambit Kinomescan binding assay relative to control
T2 sequence (whole entry): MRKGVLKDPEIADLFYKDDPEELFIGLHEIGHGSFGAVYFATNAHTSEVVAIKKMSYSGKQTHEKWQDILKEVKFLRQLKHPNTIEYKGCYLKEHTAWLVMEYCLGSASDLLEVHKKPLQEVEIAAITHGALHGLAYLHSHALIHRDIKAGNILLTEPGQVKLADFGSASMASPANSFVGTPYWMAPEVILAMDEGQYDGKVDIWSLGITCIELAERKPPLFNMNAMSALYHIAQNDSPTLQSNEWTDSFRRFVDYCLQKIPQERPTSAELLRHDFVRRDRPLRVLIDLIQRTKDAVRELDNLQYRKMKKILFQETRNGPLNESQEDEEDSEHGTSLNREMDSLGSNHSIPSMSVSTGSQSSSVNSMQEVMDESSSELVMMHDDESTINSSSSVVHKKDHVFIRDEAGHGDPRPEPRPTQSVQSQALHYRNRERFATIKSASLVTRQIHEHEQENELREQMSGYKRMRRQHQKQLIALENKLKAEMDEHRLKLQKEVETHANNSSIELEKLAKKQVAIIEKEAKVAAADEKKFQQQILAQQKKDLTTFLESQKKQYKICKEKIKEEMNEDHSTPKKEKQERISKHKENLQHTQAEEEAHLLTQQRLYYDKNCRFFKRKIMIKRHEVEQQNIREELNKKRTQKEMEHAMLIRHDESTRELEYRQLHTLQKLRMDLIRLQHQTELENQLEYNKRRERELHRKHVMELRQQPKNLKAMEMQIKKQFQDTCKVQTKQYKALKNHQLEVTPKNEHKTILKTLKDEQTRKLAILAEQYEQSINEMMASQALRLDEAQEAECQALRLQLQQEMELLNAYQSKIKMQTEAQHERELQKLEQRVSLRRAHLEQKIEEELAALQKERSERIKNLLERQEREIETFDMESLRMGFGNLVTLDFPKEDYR

## CCN1CCN(Cc2ccc(NC(=O)c3ccc(C)c(Oc4ccnc5[nH]ccc45)c3)cc2C(F)(F)F)CC1
[1]
  residual activity: 0.15%
[2]
  residual activity: 0.15%
